# Test results: PubChem BioAssay AID995 (National Center for Advancing Translational Sciences (NCATS), 2007)
# The entries are a selection whose mix differs from that of the whole data set. Some of these compounds have results that are not shown, active ones among them. Results filed as inconclusive are left out. Calls of active or inactive are those of the source. Calls follow the shape of the dose curve; as a rule, active = well fitted inhibition curve with a large enough effect; inconclusive = small, poorly fitted or top-dose-only effect; inactive = no such curve, though single readings can be large or run the other way.
# Assay: qHTS Assay for Inhibitors of the ERK Signaling Pathway using a Homogeneous Screening Assay; also: nearly all actives have a fitted effect of over 55% in size
# Details: HEK293-V1b, vasopressin-stimulated pERK AlphaScreen; at 11.5 µM unless noted
# % is scaled to controls: 0 for no effect and ±100 for the full control effect.
row,SMILES,"activity, negative = inhibition"
1,C=C(C)C#C[C@@](O)(C(=O)OC1CCN(C)CC1)c1ccccc1,inactive: 3%
2,CN1CC[C@H](OC(=O)[C@](O)(c2ccccc2)C2CCCC2)C1,inactive: -11.4%
3,CN1CCC[C@H](OC(=O)[C@](O)(c2ccccc2)C2CCCC2)C1,inactive: -15.5%
4,CN(C)c1cccc(C(=O)NCC2(N(C)C)CCCCC2)c1,inactive: -6.74% [at 57.5 µM]
